For four compounds, IC50 results are on record in patent USRE46942E1, “4-piperidinyl compounds for use as tankyrase inhibitors” (NOVARTIS AG, priority 2011, dated 2018).

By UniProt entry, the sequences of proteins in these tests, tags left out. Residues count along the entry.
UniProt Q9H2K2, 959-1164: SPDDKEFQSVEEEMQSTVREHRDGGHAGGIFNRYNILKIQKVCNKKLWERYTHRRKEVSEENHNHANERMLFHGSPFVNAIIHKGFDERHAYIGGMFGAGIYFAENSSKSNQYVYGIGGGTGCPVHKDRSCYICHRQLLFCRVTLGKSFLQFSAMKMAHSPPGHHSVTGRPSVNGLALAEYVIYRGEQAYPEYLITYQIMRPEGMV

Each structure is given as a SMILES string.

The experiment has as its target TNKS2 (GST-tagged tankyrase 2 PARP domain, TNKS2P) (Homo sapiens (Human), UniProt Q9H2K2). As to the kind of experiment: TNKS2 autoparsylation (AP) enzyme assay, LC/MS detection of nicotinamide. The experiment is classed as biochemical. The settings on record: 60 min, room temperature. As to the method:
The human tankyrase 1 PARP catalytic domain, TNKS1P, was cloned into a pDONR221 vector using the Invitrogen Gateway Technology. This entry clone was then subcloned into the destination vector pDEST20 to obtain the N-terminal Glutathione S-transferase (GST)-tagged fusion protein.
The autoparsylation activity of the TNKS 1/2 or PARP1/2 enzymes was measured by the liquid chromatography-mass spectrometry (LC/MS) detection of nicotinamide as readout.

Take `COc1ccc2c(c1)CC1(CCN([C@@H]3CCN(Cc4nc5c(c(=O)[nH]4)COCC5)C3=O)CC1)C2=O` [Example 17, (R)-2-((3-(5-methoxy-1-oxo-1,3-dihydrospiro[indene-2,4′-piperidine]-1′-yl)-2-oxopyrrolidin-1-yl)methyl)-7,8-dihydro-3H-pyrano[4,3-d]pyrimidin-4(5H)-one]: 1.72 ± 0.12 µM corresponded to half-maximal inhibition (IC50).

For `COc1ccc2c(c1)CC1(CCN([C@H]3CCN(Cc4nc5c(c(=O)[nH]4)COCC5)C3=O)CC1)C2=O` [Example 16, (S)-2-((3-(5-methoxy-1-oxo-1,3-dihydrospiro[indene-2,4′-piperidine]-1′-yl)-2-oxopyrrolidin-1-yl)methyl)-7,8-dihydro-3H-pyrano[4,3-d]pyrimidin-4(5H)-one], the half-maximal inhibitory concentration (IC50) was < 0.0086 µM.

Take `COc1ccc(C(=O)C2CCN([C@H]3CCN(CC(=O)Nc4nnc5n4CCS5)C3=O)CC2)cc1` [Example 33, N-(5,6-dihydrothiazolo[2,3-c][1,2,4]triazol-3-yl)-2-((S)-3-(4-(4-methoxybenzoyl)piperidin-1-yl)-2-oxopyrrolidin-1-yl)acetamide]: the IC50 came out at 0.374 ± 0.002 µM.

Take `COc1ccc(C(=O)C2CCN([C@@H]3CCN(CC(=O)Nc4nnc5n4CCS5)C3=O)CC2)cc1` (single isomer, unassigned) [Example 34]: the IC50 was found to be 0.016 ± 0.001 µM.
